From paper PMC10763724 (Molecular cancer therapeutics, 2019) come the findings set out here.

By UniProt entry, the sequences of proteins in these tests, tags left out. Where a name states a change or a piece, a line headed by the entry shows the natural chain unless it says otherwise.
UniProt P00352: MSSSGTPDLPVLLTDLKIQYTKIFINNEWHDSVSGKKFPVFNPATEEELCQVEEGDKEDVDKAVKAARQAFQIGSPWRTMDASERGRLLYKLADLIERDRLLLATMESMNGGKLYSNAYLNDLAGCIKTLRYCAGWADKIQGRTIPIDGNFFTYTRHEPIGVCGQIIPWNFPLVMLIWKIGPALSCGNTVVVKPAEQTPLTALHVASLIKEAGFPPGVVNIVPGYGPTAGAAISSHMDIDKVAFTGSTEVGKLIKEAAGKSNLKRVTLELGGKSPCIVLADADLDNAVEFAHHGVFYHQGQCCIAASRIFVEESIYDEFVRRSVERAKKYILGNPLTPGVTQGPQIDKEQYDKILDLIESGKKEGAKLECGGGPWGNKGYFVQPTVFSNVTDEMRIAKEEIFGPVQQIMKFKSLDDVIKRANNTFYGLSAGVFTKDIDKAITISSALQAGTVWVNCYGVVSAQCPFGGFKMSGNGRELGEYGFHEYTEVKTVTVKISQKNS

Common to all, as to type: biochemical
The target in one assay is ALDH1A1 (Homo sapiens, UniProt P00352). As to the kind of experiment: ALDH1A1 isoform-specific enzyme assay. The following applies: read-out: IC50s ALDH1A1; propionaldehyde substrate, 15 minutes preincubation.
For another assay, the target named is T1, ALDH2 (Homo sapiens, UniProt P05091).
T1 sequence (P05091 18-517): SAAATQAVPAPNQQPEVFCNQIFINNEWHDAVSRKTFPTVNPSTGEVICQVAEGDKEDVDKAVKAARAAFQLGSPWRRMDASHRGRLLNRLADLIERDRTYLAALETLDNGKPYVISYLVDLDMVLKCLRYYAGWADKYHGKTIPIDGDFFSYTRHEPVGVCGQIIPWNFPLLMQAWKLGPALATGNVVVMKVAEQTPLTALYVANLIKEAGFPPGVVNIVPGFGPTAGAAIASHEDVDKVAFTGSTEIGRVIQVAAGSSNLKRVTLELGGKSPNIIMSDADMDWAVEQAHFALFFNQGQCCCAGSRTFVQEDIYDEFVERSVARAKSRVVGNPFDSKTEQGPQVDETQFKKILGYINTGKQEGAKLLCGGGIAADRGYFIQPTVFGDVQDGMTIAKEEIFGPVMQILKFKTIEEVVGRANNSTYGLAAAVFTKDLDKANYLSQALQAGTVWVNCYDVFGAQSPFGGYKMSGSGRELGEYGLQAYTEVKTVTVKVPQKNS
As to the kind of experiment: ALDH2 isoform-specific enzyme assay. The following applies: read-out: IC50s ALDH2; acetaldehyde substrate, 15 minutes preincubation.

Another assay addresses T2, ALDH3A1 (Homo sapiens, UniProt P30838).
T2 sequence (P30838 1-453): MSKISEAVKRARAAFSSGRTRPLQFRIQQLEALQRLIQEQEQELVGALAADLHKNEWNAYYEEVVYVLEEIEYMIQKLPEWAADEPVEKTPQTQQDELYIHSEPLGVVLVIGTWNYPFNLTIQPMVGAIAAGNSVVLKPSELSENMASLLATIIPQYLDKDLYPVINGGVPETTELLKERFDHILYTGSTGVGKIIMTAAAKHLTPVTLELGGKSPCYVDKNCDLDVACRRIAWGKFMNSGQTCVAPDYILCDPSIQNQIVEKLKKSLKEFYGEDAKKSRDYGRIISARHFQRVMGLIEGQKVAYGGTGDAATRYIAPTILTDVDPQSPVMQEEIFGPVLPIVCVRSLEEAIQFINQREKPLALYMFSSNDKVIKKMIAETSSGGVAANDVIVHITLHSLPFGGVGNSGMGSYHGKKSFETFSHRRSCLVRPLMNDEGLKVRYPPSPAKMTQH
As to the kind of experiment: ALDH3A1 isoform-specific enzyme assay. Conditions: read-out: IC50s ALDH3A1; 4-nitrobenzaldehyde substrate, 15 minutes preincubation.

Regarding CVT10216, the IC50 on ALDH1A1 is 2430 nM; on ALDH2, 53 ± 2 nM; at ALDH3A1, 2720 nM.
